Consider one molecule from patent US9597402B2, “Sustained release small molecule drug formulation” (DURECT CORPORATION, priority 2005, dated 2017).

As a reminder, the pKa is the negative logarithm of the acid dissociation constant.

Where two headings read alike, the source gives them in different places.

The nature of the series: pKa (Table 1 physiochemical properties). The text has this:
In one embodiment, a small molecule drug formulation includes a small molecule psychotherapeutic drug, such as a small molecule antipsychotic, dopamine receptor agonist, dopamine receptor antagonist, serotonin receptor agonist, serotonin receptor antagonist, and serotonin uptake inhibitor drug. […] R209130-base has the molecular formula C19H20FNO. R209130-mandelic acid salt (R209130) has the molecular formula C19H20FNO.C8H8O3. R209130-tartaric acid salt (R167154) has the molecular formula C19H20FNO.C4H6O6.

`Cc1nc2n(c(=O)c1CCN1CCC(c3noc4cc(F)ccc34)CC1)CCCC2` [Risperidone pamoate, Risperidone-pamoate] registered a pKa of 8.2. This molecule also returned a pKa (second printed value (after slash)) of 3.1.
